Assay results reported in PubChem BioAssay AID623870 (Broad Institute, 2012).
The list shows a part of the results, in another mix than the full data. Active and inactive are the calls of the source.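 How the source made its calls: active means mean inhibition of replicates at least 50% and at least half of replicates each reaching 50%; inconclusive means half or more replicates reach 50% but mean below 50%; inactive means the rest.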

target: Transforming acidic coiled-coil-containing protein 3 (Homo sapiens) (UniProt Q9Y6A5); test: disruptors of ARNT/TACC3 protein interaction, primary screen, biochemical, AlphaScreen, single concentration (AID 623870); conditions: AlphaScreen His-ARNT PAS-B/GST-TACC3 binding, luminescence; at 9.99 µM; active compounds read high; TACC3 fragment carries E629A point mutation;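 further: 0% = complete ARNT plus TACC3 wells and 100% = ARNT alone without TACC3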

| SMILES | inhibition |
| --- | --- |
| CP(=O)(Nc1ccccn1)Oc1ccc(Cl)cc1 (stereo not drawn) | inactive: -5.48% |
| CCOP(C)(=S)SCC(=O)NC(C)C(=O)O (stereo not drawn) | inactive: -7.32% |
| CCOC(=O)c1ccc(NP(C)(=O)Oc2ccc(OC)cc2)cc1 (stereo not drawn) | inactive: 0.105% |
| CCc1ccc(OP(C)(=O)N2CCN(c3ccc([N+](=O)[O-])cc3)CC2)cc1 (stereo not drawn) | inactive: 10.1% |
| CP(=O)(NC(=O)Nc1ccccc1)Oc1ccccc1 (stereo not drawn) | inactive: -4.87% |
| Cc1cc(C)cc(OP(C)(=O)Nc2ccc(SC(F)(F)F)cc2)c1 (stereo not drawn) | inactive: 8.37% |
| Cc1cccc(C)c1OP(C)(=O)Nc1ccc(SC(F)(F)F)cc1 (stereo not drawn) | inactive: -20.7% |
| CP(=O)(Oc1ccccc1)OC(c1ccccc1)C(F)(F)F (stereo not drawn) | inactive: -9.56% |
| COc1ccccc1OP(C)(=O)Nc1ccccc1 (stereo not drawn) | inactive: -1.92% |
| CP(=O)(Nc1ccccc1Br)Oc1ccccc1 (stereo not drawn) | inactive: -2.8% |
| CP(=S)(Nn1cnnc1)Oc1ccccc1 (stereo not drawn) | inactive: 11.1% |
| COc1ccccc1OP(C)(=O)Nc1cc(Cl)ccc1C (stereo not drawn) | inactive: 3.66% |
| COc1ccc(OP(C)(=O)Nc2cccc(F)c2)cc1 (stereo not drawn) | inactive: -1.72% |
| Cc1cc(C)cc(OP(C)(N)=O)c1 (stereo not drawn) | inactive: -7.79% |
| CCOC(=O)c1ccc(NP(C)(=O)Oc2ccccc2)cc1 (stereo not drawn) | inactive: 2.9% |
| Cc1ccc(NP(C)(=O)Oc2ccccc2)c(C)c1 (stereo not drawn) | inactive: -3.55% |
| CC(C)(C)c1ccc(OP(C)(=O)Nc2ccc(SC(F)(F)F)cc2)cc1 (stereo not drawn) | inactive: -7.66% |
| Cc1cccc(C)c1OP(C)(N)=O (stereo not drawn) | inactive: -0.617% |
| O=[N+]([O-])c1ccc2c(c1)C=Nc1ccccc1O2 | inactive: 7.07% |
| O=[N+]([O-])c1cc([N+](=O)[O-])c(Nc2cccnc2)c([N+](=O)[O-])c1 | inactive: -4.2% |
| CP(=O)(Nc1cccc(Br)c1)Oc1ccccc1 (stereo not drawn) | inactive: 2.58% |
| Cc1cc(C)cc(OP(C)(=O)Nc2ccccn2)c1 (stereo not drawn) | inactive: -3.12% |
| Cc1cc(C)cc(OP(C)(=O)Nc2ccc(C)cc2C)c1 (stereo not drawn) | inactive: 10.3% |
| CCOC(=O)c1ccc(NP(C)(=O)Oc2cc(C)cc(C)c2)cc1 (stereo not drawn) | inactive: -3.06% |
| COc1ccccc1OP(C)(=O)Nc1cccc(Br)c1 (stereo not drawn) | inactive: 0.782% |
| CC1=NCCc2c1[nH]c1ccccc21.O=[N+]([O-])c1cc([N+](=O)[O-])c(O)c([N+](=O)[O-])c1 | inactive: 4.18% |
| O=C(O)c1cccc(Nc2c([N+](=O)[O-])cc([N+](=O)[O-])cc2[N+](=O)[O-])c1 | inactive: -5.14% |
| CP(=O)(Nc1ccc(SC(F)(F)F)cc1)Oc1ccccc1 (stereo not drawn) | inactive: -5.75% |
